Experimental data from publication PMC4535766, “Antiprotozoal Activity Profiling of Approved Drugs: A Starting Point toward Drug Repositioning” (PLoS ONE, 2015).

System: P. falciparum strain K1
Assay: In vitro activity against P. falciparum, serial drug dilution assay

## CN[C@H]1CC[C@@H](c2ccc(Cl)c(Cl)c2)c2ccccc21 [Sertraline]
  Activity against P. falciparum (in words): micromolar range
